The record followed here is patent US20220168430A1, “THERAPEUTIC METHODS FOR TREATING HEPATITIS B” (priority 2019, published 2022).

The subject of assay [1] is HBV DNA. The experiment in a line: HBV DNA in culture supernatants of HBV-infected PHH by qPCR (Examples 15-17). The assay is classed as cell-based, HBV genotype D; primary human hepatocytes. The following applies: TDF 0.37 nM alone. As for the experimental part:
The day PHH seeding date was defined as day 0.
The PHH were infected with 400 HBV GE/cell of D type HBV on day 1.
The test articles were further diluted with the culture medium to the final test concentrations.
All the test articles were further diluted 100 times with the culture medium. The final concentration of DMSO in the culture medium was […].
Four two-way combinations were performed on a 5×5 matrix, in triplicate plates. Transfection reagent was present in all wells.
DNA in the culture supernatants harvested on days 8 was isolated with QIAamp 96 DNA Blood Kit (Qiagen-51162). For each sample, 100 μl of each culture supernatant was used to extract DNA. The DNA was eluted with 180 μl of AE. HBV DNA in the culture supernatants was quantified by quatitative PCR using well-established and commonly used procedures. Percent inhibition of HBV DNA was calculated with the formula below:
% Inh. HBV DNA=[1−value of sample/AVG. value of Medium control]×100.
Results of double combination studies were analyzed using MacSynergy II software (Prichard and Shipman, 1992).

The next assay concerns HBV rcDNA. The experiment in a line: microbe, parasite or virus in culture. The following applies: Hepatitis B virus, HepG2.2.15; Cmpd 2 0.00008 μM; TDF 0 μM; Cmpd 1 by row r27-r32: 0.405, 0.135, 0.045, 0.015, 0.005, 0 μM; read-out: ADDITIVE INHIBITION
The assay is classed as cell-based, HBV genotype D, serotype ayw; HepG 2.2.15. As for the experimental part:
In vitro triple agent combination studies were conducted using the method of Prichard and Shipman 1990 (Prichard M N, Shipman C, Jr. 1990. Antiviral Res 14:181-205). The HepG 2.2.15 cell line was derived from HepG2 cells with constitutive expression of HBV (genotype D, serotype ayw) (Sells M A, Chen M L, Acs G. 1987. Proc Natl Acad Sci USA 84:1005-9). […] The plates were incubated for 7 days in a humidified incubator at 37° C. and 5% CO2. The level of rcDNA present in the culture supernatants was measured using a Quantigene 2.0 bDNA assay kit (Affymetrix, Santa Clara, Calif.) with HBV specific custom probe set (genotype D ayw) and according to the manufacturer's instructions and read using a luminescence plate reader and the relative luminescence units (RLU) data generated from each well was calculated as % inhibition of the untreated control wells and analyzed using the MacSynergy II program to determine whether the combinations were synergistic, additive or antagonistic using the interpretive guidelines established by Prichard and Shipman (Prichard M N, Shipman C, Jr. 1990. […] Concurrently, in each experiment, the effect of inhibitor combinations on cell viability was assessed in triplicates that were used to determine the ATP content as a measure of cell viability using the Cell-Titer Glo reagent (Promega, Madison, Wis.) as per the manufacturer's instructions.

Assay [2] concerns HBV DNA. Briefly: HBV DNA by branched DNA assay in HepG2.2.15 cells, two-compound combinations (Examples 13-14). The format is cell-based, HBV; HepG2.2.15 (human hepatoblastoma). The following applies: TAF 0 μM; Cmpd 2 μM: 0.01, 0.0032, 0.001, 0.0003, 0.0001, 0; n = 4. As for the experimental part: In vitro combination studies were conducted using the method of Prichard and Shipman (Prichard M N, and Shipman C Jr., Antiviral Research, 1990, 14(4-5), 181-205; and Prichard M N, et. al., MacSynergy II). The HepG2.2.15 cell culture system is a cell line derived from human hepatoblastoma HepG2 cells, which have been stably transfected with the adw2-subtype HBV genome as previously explained in Sells et al. (Proc. Natl. Acad. Sci. U. S. A, 1987. Vol 84:1005-1009). HepG2.2.15 cells secrete Dane-like viral particles, produce HBV DNA, and produce the viral proteins, HBeAg and HBsAg.
Although inhibition of HBV DNA, RNA and proteins can be determined in the presence of these inhibitors, we used the branched DNA assay due to its ability to quantitatively measure the level HBV DNA.
Detection of HBV DNA. […]
The level of bDNA present in the inhibitor-treated supernatant wells was measured using a Quantigene 2.0 bDNA assay kit (Affymetrix, Santa Clara, Calif.) with HBV specific custom probe set (genotype D ayw; DF-10739) and manufacturer's instructions after performing a proteinase K digestion in lysis. The plates were read using a Victor luminescence plate reader (PerkinElmer Model 1420 Multilabel counter) and the RLU data generated from each well was calculated as inhibition of the untreated control wells. […]

Regarding `CC(C)OC(=O)OCOP(=O)(CO[C@H](C)Cn1cnc2c(N)ncnc21)OCOC(=O)OC(C)C.O=C(O)/C=C/C(=O)O` [TDF, tenofovir disoproxil fumarate, reference compound], the “AVERAGE % INHIBITION” value with HBV DNA [1] stood at 44.28%.
What is called inhibition is the drop in the measured response relative to a control, in per cent. Take `COCCCOc1cc2c(nc1OC)-c1cc(=O)c(C(=O)O)cn1[C@H](C(C)C)C2` [Compound 2]: the inhibition at 80 pM in the assay with HBV rcDNA amounted to 23.6%. In addition, the “Average percent inhibition versus negative control” value in the assay on HBV DNA [2] is listed as 66.75%.
